scFv variants of Ab-14 (light chain) against a SARS-CoV-2 spike peptide

The target is the same throughout: PDVDLGDISGINAS, from the HR2 region of SARS-CoV-2 spike.

Parent: Ab-14, a human scFv built as VH, three GGGGS repeats, VL. Only the CDRs of the light chain vary.
VH: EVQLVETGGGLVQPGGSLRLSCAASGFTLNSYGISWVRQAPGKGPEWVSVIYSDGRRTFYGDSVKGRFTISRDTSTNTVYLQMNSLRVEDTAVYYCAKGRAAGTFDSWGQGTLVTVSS
VL: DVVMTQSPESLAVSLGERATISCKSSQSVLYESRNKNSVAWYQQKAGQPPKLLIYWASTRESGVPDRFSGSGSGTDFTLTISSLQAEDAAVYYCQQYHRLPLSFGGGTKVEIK

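The starting antibody came from a phage panning campaign against this peptide. This is the validation round: designs drawn from the data on random variants, tested in the same kind of assay. Several design methods are mixed in this list. AlphaSeq pools MATa yeast showing the antibodies with MATalpha yeast showing the peptide. The frequency of each diploid, read from paired DNA barcodes, reflects how well the two displayed proteins bind. Read counts were normalised to the haploid input and turned into Kd by a linear fit to BCL2-family pairs of known affinity, for each replicate. The assay was run in six technical replicates.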

Variants are written as CDR1, CDR2 and CDR3 of the light chain (limits as in the source). Parent: KSSQSVLYESRNKNSVA, WASTRES, QQYHRLPLS.
This list holds designs with more than six substitutions.
Affinities are written as log10 Kd with Kd in nM; a lower number is a better binder.
Averages over replicates are reported, and they cover detected replicates only.
"nd" means that the variant was in the library but no mating with the target was seen in that replicate; the authors take this as a sign of poor binding, and no number exists.
The parent sequence was in this pool as ten entries: three were never detected, three once, and four in most replicates, with averages from 0.34 to 2.37.
Nonspecific signal, from three strains lacking the peptide, appeared in 4% of pairings of all light chain designs, centred on 2.64 (5% of these signals below 1.59); values are not corrected for it.
A sequence measured in both rounds can read differently, since the two assays cover different ranges.
The authors' rule: three or more of the six replicates give a measured affinity, fewer mean a poor binder.

CDR-L1,CDR-L2,CDR-L3,"replicates, log10 nM",mean log10 Kd (nM)
GFSDQITEQIADANSIA,DRDERDV,QQYSRLPLI,1.15 0.82 1.45 1.41 0.85 1.46,1.19
KLSGLMASSKFAKDNVA,ENNTRED,QQYNRLPLS,nd nd nd nd nd nd,nd
NVGQLMDGETRNRNSVA,HQSTRED,QHYHRLPLS,0.26 0.15 0.59 0.94 0.96 0.45,0.56
HIDQVKAEQKTAENNIA,SGAQRVW,QQYSRLPFS,0.24 0.44 0.17 0.54 0.34 0.63,0.39
MISQVMNTLTRNTNNVA,DLTEREK,QQYFRLPLS,0.74 0.51 0.35 0.43 0.43 0.60,0.51
TISQVMNLLTRHGNNVA,DLEERED,QQYFRLPLS,nd nd nd 1.10 nd 0.81,0.96
QLSMITGHVSMTKNNVA,EMETREE,QQYDRLPLS,0.71 0.71 0.42 1.03 0.52 0.72,0.68
MISQLTNMGTFAINSVA,QASLRNA,QQYDRLPLT,2.11 1.13 1.46 1.21 1.06 1.30,1.38
SIGGHMKSLSAHINSVA,DMTNRED,QQYDRLPLS,0.15 -0.17 -0.35 -0.35 -0.08 0.37,-0.07
NIQDNEGGLSSQKNSVA,STEERSD,QSYHRLPLS,2.47 2.38 1.81 1.60 1.85 2.39,2.08
KLSQSQLYESRNHKNVA,NASTRVS,QQYHRLPLS,-0.11 -0.18 -0.15 -0.14 -0.12 -0.13,-0.14
KIELDLTRYNASYSAIA,HETQKAQ,QQYSRLPLV,1.62 1.80 1.85 1.40 1.41 1.68,1.63
KMQQSGLMESRNDNSVA,HASTRLE,QQYHRLPLS,0.11 -0.07 -0.04 -0.19 -0.16 0.26,-0.02
TISGLTMMPSRAHNSVA,NTSTRYQ,QQYHRLPLS,0.48 0.18 0.36 0.46 0.40 0.61,0.42
KIGLVTNGISRSKNSVA,EQSTRES,QQYNRLPLS,0.32 0.24 0.26 0.14 0.23 0.47,0.28
ILSQSVLMGSHLKNSVA,QASTRFS,QQYHRLPLV,nd nd nd nd nd nd,nd
NMKVGLNFEDIQHQAIA,SVDEREK,QQYYRLPLT,0.69 0.57 0.62 0.78 0.53 0.96,0.69
SLHLYTLTEKNANNSIA,EKSYRAY,QQYSHLPLV,1.02 1.06 0.99 0.97 0.76 1.53,1.05
NLVGRAVMQYSGRNAIA,NAHARCT,QQYFRLPLT,nd nd 2.15 2.16 nd 1.62,1.98
MISQMFEGLSTKKNPVA,QVSTREE,QQYHRLPLS,nd nd nd nd nd nd,nd
QFHSHMAGDQRNDHSIA,NATWAVP,QQYFRLPLS,0.99 1.04 1.11 0.89 1.41 0.84,1.05
NLMHHQGRYDVWKESIA,EASIRAS,QQYFRLPLA,0.95 0.74 1.80 0.24 1.80 1.81,1.22
KLEPSEWYESRMCNSVA,NASVRES,QQYHRLPLS,0.50 0.50 0.31 0.41 0.44 0.50,0.44
NISQMFLMETKNVNNVA,QTNTRES,QDYHRLPLS,0.06 0.08 -0.19 0.04 -0.13 0.11,-0.01
MISQLFMYGSRNYNSIA,QASEREK,QQYDRLPLE,1.49 1.09 1.12 1.55 0.96 0.80,1.17
KLYSVTGTEKVNGNNVA,EMETRER,QQYNRLPLA,0.24 -0.32 0.10 -0.34 -0.03 0.16,-0.03
YLSINEVSDSNNVSQVA,EAETSVA,QQYHHLPLI,1.18 1.18 0.79 1.01 1.38 1.40,1.16
KLSMSMLLESFHKNNVA,ENSTREE,QHYHRLPLS,nd nd nd nd nd nd,nd
KSPFSVYYGDRNKMSVA,SASTRES,QQYHRLPLS,0.89 0.59 0.32 0.72 0.73 0.68,0.66
QISMNLEIYDQEQWNVA,HGEMRTE,QQYHKLPLS,1.09 0.88 0.94 0.54 0.95 0.98,0.90
HMRHEFYGYDNYDKAVA,HANQRLN,QQYSRLPFS,0.81 1.25 1.09 0.92 0.86 1.02,0.99
ALSHPSDSWLEHQNSIA,DDNISLT,QQYHQLPLS,1.39 1.03 1.44 1.14 1.07 1.05,1.19
KFSQSKEMVNKEGESIA,GSHTIQE,QQYDRLPLA,0.64 0.56 0.91 0.32 0.74 0.61,0.63
RADAYPPIQGNNIDSVA,ENAIRLD,QQYARLPLS,0.96 1.34 0.96 0.56 0.67 1.00,0.91
KISQFYRMESRNKNSVA,DNSTRES,QDYDRLPLS,1.68 2.62 nd nd 3.68 nd,2.66
KVDQSEWCESRWKNSVA,SASTRIS,QQYHRLPLS,1.10 0.91 0.92 1.06 0.88 1.05,0.99
TISQMSTLFSQSINNVA,EVSTREQ,QQYDRLPLV,nd 2.53 1.10 0.53 3.25 1.30,1.74
KLSVSWLFESIEHNSVA,ERSTRES,QDYNRLPLS,nd 2.02 1.90 0.98 1.82 2.55,1.85
TISGLILMPSRNKNNVA,NTSTRYS,QQYHRLPLS,0.18 0.61 0.58 0.27 0.42 0.69,0.46
HMSMLTMMGMKQRNSVA,QMTMREN,QQYDRLPLT,0.67 0.66 0.26 0.50 0.81 1.08,0.66
KWMQSVDYESRNKNSVA,NGQTREA,QQYHRLPLS,-0.26 -0.57 -0.56 -0.55 -0.60 -0.37,-0.49
HVSSMDMNDGGIKKSVA,DDKETER,QQYMRLPLS,1.09 1.47 1.17 0.97 1.47 2.57,1.46

Excerpt, the final 5 entries:

CDR-L1,CDR-L2,CDR-L3,"replicates, log10 nM",mean log10 Kd (nM)
KLSVSWLFESIEHNSVA,ERSTRES,QDYNRLPLS,nd 2.02 1.90 0.98 1.82 2.55,1.85
TISGLILMPSRNKNNVA,NTSTRYS,QQYHRLPLS,0.18 0.61 0.58 0.27 0.42 0.69,0.46
HMSMLTMMGMKQRNSVA,QMTMREN,QQYDRLPLT,0.67 0.66 0.26 0.50 0.81 1.08,0.66
KWMQSVDYESRNKNSVA,NGQTREA,QQYHRLPLS,-0.26 -0.57 -0.56 -0.55 -0.60 -0.37,-0.49
HVSSMDMNDGGIKKSVA,DDKETER,QQYMRLPLS,1.09 1.47 1.17 0.97 1.47 2.57,1.46

Data: MIT Lincoln Laboratory AlphaSeq set, Li et al. 2023, doi:10.1038/s41467-023-39022-2, as distributed in FLAb.